Experimental data published in PubChem BioAssay (Tox21).
This is a selection; strong and weak results do not stand in their true shares. Inconclusive results are not listed. The source made the active and inactive calls. Unless noted, the call rests on the fitted dose curve.

Protein sequences, listed by entry. Tags and fused reporters are not part of them.
UniProt P30968, whole entry: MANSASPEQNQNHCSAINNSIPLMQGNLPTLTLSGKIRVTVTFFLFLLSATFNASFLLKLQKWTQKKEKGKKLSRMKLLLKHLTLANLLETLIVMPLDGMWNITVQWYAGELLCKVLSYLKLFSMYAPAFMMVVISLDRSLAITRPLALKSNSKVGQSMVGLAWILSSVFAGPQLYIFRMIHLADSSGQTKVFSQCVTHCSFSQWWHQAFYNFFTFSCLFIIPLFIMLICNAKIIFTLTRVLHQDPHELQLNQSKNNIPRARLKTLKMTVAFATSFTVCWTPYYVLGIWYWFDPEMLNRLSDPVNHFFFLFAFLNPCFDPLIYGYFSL
UniProt Q969F8, whole entry: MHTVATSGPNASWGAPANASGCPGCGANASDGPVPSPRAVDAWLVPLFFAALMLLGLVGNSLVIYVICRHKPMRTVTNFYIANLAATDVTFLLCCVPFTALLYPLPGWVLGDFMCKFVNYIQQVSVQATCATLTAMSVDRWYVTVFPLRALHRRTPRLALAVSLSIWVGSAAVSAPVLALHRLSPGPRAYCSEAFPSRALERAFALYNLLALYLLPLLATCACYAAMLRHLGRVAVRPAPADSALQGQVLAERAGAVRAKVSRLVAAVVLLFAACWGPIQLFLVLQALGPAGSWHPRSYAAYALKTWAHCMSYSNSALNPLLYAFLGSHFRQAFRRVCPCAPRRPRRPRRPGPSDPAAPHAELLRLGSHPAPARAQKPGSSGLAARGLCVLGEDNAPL
UniProt P28223, whole entry: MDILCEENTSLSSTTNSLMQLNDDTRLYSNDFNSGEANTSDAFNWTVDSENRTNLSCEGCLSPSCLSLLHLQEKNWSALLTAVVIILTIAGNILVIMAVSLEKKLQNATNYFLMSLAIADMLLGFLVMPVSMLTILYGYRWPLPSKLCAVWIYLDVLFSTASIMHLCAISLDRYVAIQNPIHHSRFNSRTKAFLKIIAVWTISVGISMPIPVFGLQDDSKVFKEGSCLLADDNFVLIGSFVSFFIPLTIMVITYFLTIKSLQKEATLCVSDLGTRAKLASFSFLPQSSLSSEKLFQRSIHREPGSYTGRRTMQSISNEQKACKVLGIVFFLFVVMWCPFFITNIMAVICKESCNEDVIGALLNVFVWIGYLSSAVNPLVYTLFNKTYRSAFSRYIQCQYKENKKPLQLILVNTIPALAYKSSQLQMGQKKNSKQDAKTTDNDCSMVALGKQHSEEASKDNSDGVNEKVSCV
UniProt P11229, whole entry: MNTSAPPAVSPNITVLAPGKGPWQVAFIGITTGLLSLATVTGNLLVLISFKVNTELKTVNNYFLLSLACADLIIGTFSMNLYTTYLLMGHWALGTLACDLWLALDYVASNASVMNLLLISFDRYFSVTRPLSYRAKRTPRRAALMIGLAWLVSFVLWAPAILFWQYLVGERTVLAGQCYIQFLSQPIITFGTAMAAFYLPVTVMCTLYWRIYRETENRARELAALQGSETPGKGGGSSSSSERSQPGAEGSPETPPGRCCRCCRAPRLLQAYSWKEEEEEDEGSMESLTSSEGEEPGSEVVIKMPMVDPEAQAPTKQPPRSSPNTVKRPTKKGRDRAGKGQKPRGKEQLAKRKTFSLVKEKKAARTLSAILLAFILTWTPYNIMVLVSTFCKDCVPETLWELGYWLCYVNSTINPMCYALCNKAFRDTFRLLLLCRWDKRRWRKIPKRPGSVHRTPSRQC
UniProt P07550, whole entry: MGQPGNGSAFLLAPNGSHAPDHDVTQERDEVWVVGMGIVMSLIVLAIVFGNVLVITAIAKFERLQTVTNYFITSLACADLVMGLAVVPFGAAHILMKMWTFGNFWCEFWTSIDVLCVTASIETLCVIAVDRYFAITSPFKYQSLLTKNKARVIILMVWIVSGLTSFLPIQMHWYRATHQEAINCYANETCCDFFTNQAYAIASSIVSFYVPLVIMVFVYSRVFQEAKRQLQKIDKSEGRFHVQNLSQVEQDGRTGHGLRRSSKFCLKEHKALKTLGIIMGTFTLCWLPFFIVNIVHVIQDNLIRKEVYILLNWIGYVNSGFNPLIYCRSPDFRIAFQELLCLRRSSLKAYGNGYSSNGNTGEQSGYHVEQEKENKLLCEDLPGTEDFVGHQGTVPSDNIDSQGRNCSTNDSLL
UniProt P14416, whole entry: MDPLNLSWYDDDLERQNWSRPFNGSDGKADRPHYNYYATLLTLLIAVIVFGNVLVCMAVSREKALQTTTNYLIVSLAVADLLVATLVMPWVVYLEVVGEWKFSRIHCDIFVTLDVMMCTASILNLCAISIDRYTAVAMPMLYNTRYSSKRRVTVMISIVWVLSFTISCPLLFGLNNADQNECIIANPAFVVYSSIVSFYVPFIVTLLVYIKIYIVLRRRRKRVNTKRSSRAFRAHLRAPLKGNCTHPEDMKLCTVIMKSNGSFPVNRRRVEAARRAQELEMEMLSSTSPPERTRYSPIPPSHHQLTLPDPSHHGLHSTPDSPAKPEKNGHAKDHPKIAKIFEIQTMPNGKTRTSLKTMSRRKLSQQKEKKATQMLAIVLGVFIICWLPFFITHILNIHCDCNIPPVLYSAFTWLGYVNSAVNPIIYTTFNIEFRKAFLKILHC

Legend:
[1] = Nuclear factor erythroid 2-related factor 2/antioxidant responsive element (Nrf2/ARE) small molecule agonists: qHTS cell viability counter screen in human keratinocytes (AID 1919968; active means well fitted curve in the direction sought with a large enough effect in the repeat runs; an effect the other way counts as inactive or inconclusive; further: nearly all actives have a fitted effect of over 55% in size); settings: KeratinoSens HaCaT ARE cells viability, CellTiter-Fluor, 24 h; at 92.4 µM (top of the series) unless noted
Method in brief: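 HaCaT ARE reporter line, 1,500 cells/well; 5 h settle, 37 C/5% CO2; cpd in DMSO pinned; 23 h exposure; CellTiter-Fluor, 1 h; fluorescence.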

[2] = Nuclear factor erythroid 2-related factor 2/antioxidant responsive element (Nrf2/ARE) small molecule agonists: luciferase reporter gene qHTS assay in human keratinocytes (AID 1919969); settings: KeratinoSens HaCaT ARE-luciferase, luminescence, 24 h; at 92.4 µM (top of the series) unless noted; further: nearly all actives have a fitted effect of over 35% in size
Excerpt: National Center for Advancing Translational Sciences [NCATS]
Division of Preclinical Innovation [DPI]
U.S. Environmental Protection Agency [EPA]
National Institutes of Environmental Health Sciences [NIEHS]
National Toxicology Program [NTP]
U.S. Food and Drug Administration [FDA]
Oxidative stress has been implicated in the pathogenesis of a variety of diseases ranging from cancer to neurodegeneration. The antioxidant response element (ARE) signaling pathway plays an important role in the amelioration of oxidative stress. The KeratinoSens (Givaudan, Switzerland) is an in vitro test method which quantifies luciferase induction as a measure of activation of Keap1-Nrf2-antioxidationt/electrophile response element (ARE) dependant pathway in HaCaT human keratinocytes stably transfected with a selectable plasmid. The KeratinoSens assay is a cell-based assay with a reporter cell line to detect potential skin sensitizers by their ability to induce the Nrf2/ARE-response. The activation of the report gene under culture conditions can be detected by ONE-Glo Luciferase Assay System (Promega, Madison, WI). This cell line has been used to screen the Tox21 10K compound library to identify agonists that induce oxidative stress. The cytotoxicity of the Tox21 compound library against the KS-ARE cell line was tested in parallel by measuring the cell viability using CellTiter- Fluor assay system (Promega, Madison, WI) in the same wells.
HaCaT derived cell line KeratinoSens were dispensed at 1,500 cells/5uL/well in 1536-well white wall/solid bottom plates using a Multidrop Combi (ThermoFisher Scientific, Waltham, MA) dispenser. After the assay plates were incubated at 37 C/5% CO2 for 5 h, 23 nL of compounds dissolved in DMSO, positive controls or DMSO only was transferred to the assay plate by a pintool workstation (Kalypsys, San Diego, CA). The plates were incubated at 37 C/5% CO2 for 23 h, followed by addition of 1uL/well of CellTiter-Fluor reagent into the assay plates using a Flying Reagent Dispenser (Aurora Discovery, San Diego, CA) for cell viability readout that measures cytotoxicity. After 1 h incubation at 37 C/5% CO2 the fluorescence intensity was measured using a ViewLux (PerkinElmer, Shelton, CT) plate reader. Then 4uL/well of One-Glo were added using a Flying Reagent Dispenser. After the plates were incubated at room temperature for 30 min, the luminescence intensity in the assay plates was measured using ViewLux plate reader.

[3] = molecular target: Gonadotropin-releasing hormone receptor (Homo sapiens) (UniProt P30968); assay: Human gonadotropin-releasing hormone receptor (GnRHR) small molecule agonists, calcium flux assay in GnRHR-HEK293 cells (AID 1920063); settings: calcium flux fluorescence, agonist mode, hits give high values; at 57.6 µM (top of the series) unless noted; further: nearly all actives have a fitted effect of over 35% in size
Method in brief: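 GnRHR-HEK293, 1500 cells/well, 18 h 37 C/5% CO2; Ca dye 1 h 37 C; cpd pinned (DMSO), agonist mode; kinetic FL 480/540, 3 min, 1 s reads; 15 conc, n=3.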

[4] = molecular target: KiSS-1 receptor (Homo sapiens) (UniProt Q969F8); assay: Human kisspeptin (KISS1R) small molecule agonists, calcium flux assay in KISS1R-HEK293 cells (AID 1920064; active means well fitted curve in the direction sought with a large enough effect in the repeat runs; an effect the other way counts as inactive or inconclusive); settings: KISS1R-HEK293, calcium flux fluorescence, agonist; at 76.8 µM (top of the series) unless noted
Method in brief: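 Stable human KISS1R HEK293 line; 18 h plating, 37 C/5% CO2; calcium dye 1 h 37 C; compound pin transfer; kinetic fluorescence Ex/Em 480/540, 3 min.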

[5] = G protein-coupled receptor (GPCR) small molecule agonists, calcium flux assay: HEK293 wild type cell line counter screen (AID 1920065); settings: HEK293 WT calcium flux, fluorescence, agonist mode; at 57.6 µM (top of the series) unless noted
Method in brief: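 Kinetic fluorescence at Ex/Em 480/540, recorded every second over 3 min, served as the read-out after compound addition. Each compound was tested at 15 concentrations in triplicate on cells pre-loaded with calcium dye for 1 h.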

[6] = p53 small molecule agonists, cell-based qHTS assay with human liver microsomes (AID 1963577); settings: HCT-116 p53RE-bla with human liver microsomes, ratio, 16 h; at 66 µM (top of the series) unless noted;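 further: p53 response element beta-lactamase reporter cells with liver microsomes plus NADPH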
Method in brief: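 16 h, 37 C exposure of p53RE-bla cells to compounds with human liver microsomes and NADPH (0.5 mg/mL final each); detection via LiveBLAzer mixture, 2 h dark at room temperature.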

[7] = p53 small molecule agonists, cell-based qHTS assay with rat liver microsomes (AID 1963578); settings: HCT-116 p53RE-bla, beta-lactamase ratio, 16 h; at 66 µM (top of the series) unless noted
Method in brief: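 With rat liver microsomes and NADPH present (0.5 mg/mL final each), p53RE-bla cells are treated with compound for 16 h at 37 C. LiveBLAzer detection mixture is then applied for 2 h at room temperature in the dark.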

[8] = p53 small molecule agonists, cell-based qHTS assay with human liver microsomes: qHTS cell viability counter screen (AID 1963579); settings: p53RE-bla HCT-116 viability, ATP luminescence, 16 h, HLM; at 66 µM (top of the series) unless noted; further: nearly all actives have a fitted effect of over 45% in size
Method in brief: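 In this multiplexed counter screen, the reporter plates were subsequently treated with CellTiter-Glo so that cell viability, reflected by luminescence, could be recorded for p53RE-bla cells dosed 16 h with compounds under microsomal activation (HLM and NADPH).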

[9] = p53 small molecule agonists, cell-based qHTS assay with rat liver microsomes: qHTS cell viability counter screen (AID 1963580); settings: p53RE-bla HCT-116 + rat microsomes, ATP viability, 16 h; at 66 µM (top of the series) unless noted; further: nearly all actives have a fitted effect of over 45% in size
Method in brief: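 HCT-116 p53RE-bla, 4,000 cells/well, 5 h pre-incubation; cpd + rat liver microsomes 0.5 mg/mL + NADPH 0.5 mg/mL (final); 16 h, 37 C; CellTiter-Glo, 30 min RT; luminescence.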

[10] = p53 small molecule agonists, cell-based qHTS assay: qHTS cell viability counter screen (AID 1963581); settings: p53RE-bla HCT-116 viability, ATP luminescence, 16 h; at 66 µM (top of the series) unless noted; further: nearly all actives have a fitted effect of over 45% in size
Method in brief: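 HCT-116 p53RE-bla cells, 4,000/well, plated 5 h before compound pin transfer; 16 h at 37 C; bla substrate 2 h RT; then CellTiter-Glo, 30 min RT, luminescence.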

[11] = p53 small molecule agonists, cell-based qHTS assay (AID 1963582; active means well fitted activation curve with a large enough effect in the signal ratio in the repeat runs, not every such curve was filed as active; the % refers to the signal ratio); settings: HCT-116 p53RE-bla reporter, beta-lactamase FRET ratio, 16 h; at 66 µM (top of the series) unless noted
Method in brief: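 Reporter line: p53RE-bla. Pre-incubation 5 h, 37 C, 5% CO2; compound (DMSO, pin tool) 16 h, 37 C; B/G FRET substrate 2 h RT; fluorescence intensity read.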

[12] = molecular target: 5-hydroxytryptamine receptor 2A (Homo sapiens) (UniProt P28223); assay: 5-hydroxytryptamine receptor 2A (HTR2A) small molecule antagonists, cell-based qHTS assay (AID 1963586); settings: HTR2A-CHO cells, DOI-induced calcium flux, fluorescence; at 61.5 µM (top of the series) unless noted; further: nearly all actives have a fitted effect of over 45% in size
Method in brief: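 Antagonist-mode intracellular calcium assay: DOI (4 nM) added after 5 min compound pre-incubation at room temperature to dye-loaded HTR2A-CHO cells. Fluorescence followed for 3 min, sampled every second.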

[13] = molecular target: 5-hydroxytryptamine receptor 2A (Homo sapiens) (UniProt P28223); assay: 5-hydroxytryptamine receptor 2A (HTR2A) small molecule agonists, cell-based qHTS assay (AID 1963587); settings: HTR2A-CHO cells, calcium flux fluorescence, agonist mode; at 76.8 µM (top of the series) unless noted; further: nearly all actives have a fitted effect of over 30% in size
Method in brief: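 Kinetic calcium-flux fluorescence (2 min, 1 sec intervals) after compound addition in agonist mode. HTR2A-CHO cells were cultured 18 h, then dye-loaded 1 h at 37 C.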

[14] = molecular target: Muscarinic acetylcholine receptor M1 (Homo sapiens) (UniProt P11229); assay: Cholinergic receptor muscarinic 1 (CHRM1) small molecule antagonists, cell-based qHTS assay (AID 1963588); settings: CHRM1-CHO antagonist mode, calcium flux fluorescence; at 61.5 µM (top of the series) unless noted; further: nearly all actives have a fitted effect of over 40% in size
Method in brief: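 CHRM1-CHO calcium-flux assay, antagonist mode. Cells were seeded 18 h, dye-loaded 1 h at 37 C and given compound for 5 min at RT, then acetylcholine was added at 50nM. FDSS fluorescence was read 3 min; 15 concentrations, three runs.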

[15] = molecular target: Muscarinic acetylcholine receptor M1 (Homo sapiens) (UniProt P11229); assay: Cholinergic receptor muscarinic 1 (CHRM1) small molecule agonists, cell-based qHTS assay (AID 1963589); settings: CHRM1-CHO cells, agonist mode, calcium flux fluorescence; at 76.8 µM (top of the series) unless noted; further: nearly all actives have a fitted effect of over 35% in size
Method in brief: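 Human M1 in stable CHO line; 18 h plating, 1 h dye load 37 C; cpd added (agonist mode); Ca2+ fluorescence kinetic read, 1 s intervals; 15 conc, 3 runs.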

[16] = cAMP Responsive Elements (CRE) small molecule agonists, cell-based qHTS assay (AID 1963590); settings: CRE-bla HEK293T, beta-lactamase FRET ratio, 3 h; at 92.4 µM (top of the series) unless noted
Method in brief: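 HEK 293T CRE-bla, 2,000 cells/well, 18 h preincubation 37 C/5% CO2; cpds (DMSO) pinned, 3 h; LiveBLAzer B/G FRET substrate, 2 h RT.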

[17] = cAMP Responsive Elements (CRE) small molecule antagonists, cell-based qHTS assay (AID 1963591; active means well fitted inhibition curve with a large enough effect in the signal ratio in the repeat runs, not every such curve was filed as active; the % refers to the signal ratio); settings: CRE-bla HEK293T, beta-lactamase FRET ratio; at 92.4 µM (top of the series) unless noted
Method in brief: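 Beta-lactamase reporter read by FRET substrate (LiveBLAzer B/G) after 2 h at room temperature. CRE-bla HEK293T cells had received compound plus 0.25 uM (final) NKH477 for 3 h at 37 °C.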

[18] = molecular target: Beta-2 adrenergic receptor (Homo sapiens) (UniProt P07550); assay: Adrenergic beta2 receptor (ADRB2) small molecule antagonists, cell-based qHTS assay (AID 1963592); settings: CHO-ADRB2 cells, isoproterenol-stimulated cAMP HTRF ratio, 0.5 h; at 92.4 µM (top of the series) unless noted; further: nearly all actives have a fitted effect of over 50% in size
Method in brief: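 Cells (CHO, stable ADRB2 overexpression) incubated 18-20hr at 37C; compounds added from DMSO; agonist mix (1nM isoproterenol, 100uM IBMX, 25uM Ro-20-1724) added; 0.5hr RT; d2-cAMP and anti-cAMP-cryptate added; 1hr RT; 665/615 nm read.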

[19] = molecular target: Beta-2 adrenergic receptor (Homo sapiens) (UniProt P07550); assay: Adrenergic beta2 receptor (ADRB2) small molecule agonists, cell-based qHTS assay (AID 1963593); settings: CHO-ADRB2 cells, cAMP HTRF, 30 min; at 92.4 µM (top of the series) unless noted;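 further: CHO cells stably overexpressing human ADRB2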
Method in brief: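 CHO cells stably over-expressing ADRB2 were plated overnight at 37C, then dosed with compounds plus a stimulation mix containing 100uM IBMX and 25uM Ro-20-1724 for 0.5hr at room temperature. cAMP was measured by HTRF competition, 1hr.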

[20] = molecular target: D(2) dopamine receptor (Homo sapiens) (UniProt P14416); assay: Dopamine D2 receptor (DRD2) small molecule agonists, cell-based qHTS assay (AID 1963594); settings: HEK293-DRD2 cAMP HTRF, agonist mode, 30 min; at 92.4 µM (top of the series) unless noted; further: nearly all actives have a fitted effect of over 35% in size
Method in brief: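 cAMP accumulation in DRD2-HEK293 cells measured by HTRF after 1 h detection; compounds added 10 min before NKH477 (200nM […]) forskolin-analogue stimulation, 30 min at room temperature, with Ro20-1724 present at 0.1 mM final.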

[21] = molecular target: D(2) dopamine receptor (Homo sapiens) (UniProt P14416); assay: Dopamine D2 receptor (DRD2) small molecule antagonists, cell-based qHTS assay (AID 1963595; active means well fitted inhibition curve with a large enough effect in the signal ratio in the repeat runs, with a control signal flat; the % refers to the signal ratio); settings: HEK293-DRD2 cAMP HTRF antagonist mode; at 92.4 µM (top of the series) unless noted
Method in brief: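 HTRF cAMP read-out at 665 and 620 nm emission (340 nm excitation). Antagonist mode: compounds were tested against 12 nM quinpirole in DRD2-HEK293 cells, with 200 nM NKH477 raising cAMP and 0.1 mM Ro20-1724 blocking its breakdown.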
On the % scale 0 is the no-effect control and ±100 the full control effect.

CCOC(=O)N1CCC(=O)CC1
inactive: activity change, negative = cytotoxicity [1] -13.1% [at 42.5 µM] | activity, positive = activation [2] 3.5% [at 42.5 µM] | activity change [3] -0.535% [at 26.4 µM] | activation [4] -0.853% [at 35.3 µM] | activation [5] 0.925% [at 26.5 µM] | activation [6] 1.18% [at 30.3 µM] | activation [7] 0.727% [at 30.3 µM] | activity change, negative = cytotoxicity [8] -8.76% [at 30.3 µM] | activity change, negative = cytotoxicity [9] 0.3% [at 30.3 µM] | activity change, negative = cytotoxicity [10] 11.5% [at 30.3 µM] | activation [11] 0.484% [at 30.3 µM] | activity, negative = inhibition [12] 20.9% [at 28.5 µM] | activation [13] 0.683% [at 35.6 µM] | activity, negative = inhibition [14] 15.8% [at 28.3 µM] | activation [15] -0.117% [at 35.3 µM] | activation [16] -1.81% [at 42.5 µM] | activity change, negative = inhibition [17] -0.755% [at 42.4 µM] | activity change, negative = inhibition [18] 4.3% [at 42.5 µM] | activation [19] 26.1% [at 42.5 µM] | activation [20] -12.7% [at 42.5 µM] | activity change, negative = inhibition [21] 0.287% [at 42.5 µM]
